Test results as given in patent US20260014180A1 (published 2026).

Protein sequences, listed by entry. Tags and fused reporters are not part of them.
UniProt P27338, whole entry, species assumed: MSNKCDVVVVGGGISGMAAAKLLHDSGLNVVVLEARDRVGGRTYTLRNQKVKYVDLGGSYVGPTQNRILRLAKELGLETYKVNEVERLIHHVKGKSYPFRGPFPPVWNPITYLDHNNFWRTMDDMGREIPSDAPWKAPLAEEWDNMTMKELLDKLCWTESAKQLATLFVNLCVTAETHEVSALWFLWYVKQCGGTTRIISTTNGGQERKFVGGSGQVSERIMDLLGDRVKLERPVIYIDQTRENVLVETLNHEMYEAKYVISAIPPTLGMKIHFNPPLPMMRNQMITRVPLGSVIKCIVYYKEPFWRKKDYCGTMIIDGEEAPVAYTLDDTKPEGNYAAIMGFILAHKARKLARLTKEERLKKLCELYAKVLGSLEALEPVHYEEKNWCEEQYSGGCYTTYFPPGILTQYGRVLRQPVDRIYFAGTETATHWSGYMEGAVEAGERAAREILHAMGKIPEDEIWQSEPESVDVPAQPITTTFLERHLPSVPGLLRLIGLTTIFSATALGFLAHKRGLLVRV
UniProt P21397, whole entry, species assumed: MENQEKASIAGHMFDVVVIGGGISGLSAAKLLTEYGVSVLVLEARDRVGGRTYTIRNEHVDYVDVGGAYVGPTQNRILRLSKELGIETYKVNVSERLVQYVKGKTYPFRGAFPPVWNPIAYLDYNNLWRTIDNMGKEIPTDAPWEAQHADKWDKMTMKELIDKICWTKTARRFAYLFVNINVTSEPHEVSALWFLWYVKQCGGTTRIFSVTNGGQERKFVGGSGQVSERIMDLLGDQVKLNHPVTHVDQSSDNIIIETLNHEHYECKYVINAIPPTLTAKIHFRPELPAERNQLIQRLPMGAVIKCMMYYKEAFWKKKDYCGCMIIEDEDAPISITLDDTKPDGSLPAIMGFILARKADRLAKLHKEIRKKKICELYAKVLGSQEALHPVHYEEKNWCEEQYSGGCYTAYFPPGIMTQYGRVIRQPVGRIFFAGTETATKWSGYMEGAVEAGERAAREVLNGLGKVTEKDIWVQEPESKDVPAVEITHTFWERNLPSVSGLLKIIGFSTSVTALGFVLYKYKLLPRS

Tests used:
[1] = target: MAO-B (Homo sapiens, UniProt P27338); conditions: in vivo; cited from earlier work
[2] = target: T1, MAO-A (Homo sapiens, UniProt P21397); conditions: in vivo; cited from earlier work
[3] = target: T1, MAO-A; assay: Sigma-Aldrich commercial kit MAO-A inhibition assay (peroxide/fluorescence); format: biochemical; conditions: first round; inhibitor control at 5 uM

NNCCc1ccccc1 [Phenelzine]
duration of MAO-B inhibition [1]: up to three weeks | duration of MAO-A inhibition [2]: up to three weeks

C#CCN(C)CCCOc1ccc(Cl)cc1Cl [Clorgyline]
MAO-A inhibition [3]: 94.16%
